Values of other authors in US20190021608A1, “CD206+ Macrophage-Specific Molecular Imaging Probe Compositions and Methods and the Noninvasive Quantification of Arterial Wall Macrophage Infiltration in Humans” (Navidea Biopharmaceuticals, Inc., priority 2017, published 2019).

By UniProt entry, the sequences of proteins in these tests, tags left out. Residues count along the entry.
UniProt P22897, 19-1456, species assumed: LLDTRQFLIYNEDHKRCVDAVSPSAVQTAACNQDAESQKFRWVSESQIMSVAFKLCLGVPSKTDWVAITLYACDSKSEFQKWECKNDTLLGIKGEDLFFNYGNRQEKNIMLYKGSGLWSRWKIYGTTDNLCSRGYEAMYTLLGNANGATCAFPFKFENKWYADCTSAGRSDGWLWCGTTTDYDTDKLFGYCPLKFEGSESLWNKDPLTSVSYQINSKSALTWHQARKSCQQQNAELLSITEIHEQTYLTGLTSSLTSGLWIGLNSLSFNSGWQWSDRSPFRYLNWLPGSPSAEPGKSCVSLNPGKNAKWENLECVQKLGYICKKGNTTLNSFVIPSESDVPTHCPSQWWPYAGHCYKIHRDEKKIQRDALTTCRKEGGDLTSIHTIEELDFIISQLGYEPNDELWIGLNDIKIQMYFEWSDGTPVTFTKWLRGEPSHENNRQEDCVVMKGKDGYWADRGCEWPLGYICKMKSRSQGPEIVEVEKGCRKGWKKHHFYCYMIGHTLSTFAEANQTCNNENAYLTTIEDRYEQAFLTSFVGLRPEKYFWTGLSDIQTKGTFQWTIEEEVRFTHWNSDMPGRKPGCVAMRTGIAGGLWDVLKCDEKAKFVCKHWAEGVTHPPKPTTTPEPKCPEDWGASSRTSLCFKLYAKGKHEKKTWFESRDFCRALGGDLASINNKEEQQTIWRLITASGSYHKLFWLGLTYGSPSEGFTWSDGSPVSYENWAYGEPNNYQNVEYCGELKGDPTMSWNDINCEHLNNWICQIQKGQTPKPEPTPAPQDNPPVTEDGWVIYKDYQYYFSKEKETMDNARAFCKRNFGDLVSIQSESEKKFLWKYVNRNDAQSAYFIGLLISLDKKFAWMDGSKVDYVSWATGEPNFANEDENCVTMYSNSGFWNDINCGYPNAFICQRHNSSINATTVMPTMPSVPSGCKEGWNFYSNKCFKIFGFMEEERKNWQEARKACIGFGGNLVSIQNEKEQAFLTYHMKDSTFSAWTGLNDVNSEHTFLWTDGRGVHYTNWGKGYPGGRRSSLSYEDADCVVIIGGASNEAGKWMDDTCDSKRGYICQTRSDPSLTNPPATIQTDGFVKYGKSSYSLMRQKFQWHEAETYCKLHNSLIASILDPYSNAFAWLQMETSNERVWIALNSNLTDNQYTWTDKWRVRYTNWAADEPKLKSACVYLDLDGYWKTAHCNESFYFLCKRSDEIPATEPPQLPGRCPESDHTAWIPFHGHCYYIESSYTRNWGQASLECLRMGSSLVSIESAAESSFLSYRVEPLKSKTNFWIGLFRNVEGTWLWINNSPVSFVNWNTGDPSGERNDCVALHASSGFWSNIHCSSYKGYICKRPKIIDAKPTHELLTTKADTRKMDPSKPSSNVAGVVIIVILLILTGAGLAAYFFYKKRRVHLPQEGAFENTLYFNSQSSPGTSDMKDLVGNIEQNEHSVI

Target: CD206 (Homo sapiens, UniProt P22897)
Conditions: read-out: dissociation constant for CD206

dextran 3-[(2-aminoethyl)thio]propyl 17-carboxy-10,13,16-tris(carboxymethyl)-8-oxo-4-thia-7,10,13,16-tetraazaheptadec-1-yl 3-[[2-[[1-imino-2-(D-mannopyranosylthio)ethyl]amino]ethyl]thio]propyl ether complexes [Tilmanocept]
Kd: 0.03 nM
